Results on one substance are retold here after patent US5612056A, “Transdermal formulations” (priority 1991, dated 1997).

The subject of the data set is guinea pig. The settings on record: in vivo.

With Propionic Acid, the deaths result is reported as “One animal in this group died within 24 hrs of treatment” and the “signs of cholinesterase poisoning in remaining animals” value is “all other animals showed no signs of cholinesterase poisoning”.
